{
  "source": "patent US20210315886A1",
  "about": "“IMIDAZOTETRAZINE COMPOUNDS” (The Board of Trustees of the University of Illinois, priority 2018, published 2021)",
  "data": [
    {"system": "panel of human GBM cell lines", "assay": "Anticancer activity against panel of human GBM cell lines", "assay_type": "cell-based", "conditions": "U118MG and T98G MGMT-expressing GBM cells", "experimental": "Anticancer activity of C8 substituted imidazotetrazines. With a suite of imidazotetrazines in hand, each compound was evaluated against a panel of human GBM cell lines (Table 1a, Table 1b).", "values": [
      {"smiles": "Cc1cnc(-c2ncn3c(=O)n(C)nnc23)o1", "note": "[Compound 27, 3-methyl-8-(5-methyloxazol-2-yl)imidazo[5,1-d][1,2,3,5]tetrazin-4(3H)-one]", "activity relative to TMZ in MGMT-expressing cell lines": "significantly more potent"},
      {"smiles": "Cn1nnc2c(Cl)ncn2c1=O", "note": "[Compound 19, 8-chloro-3-methylimidazo[5,1-d][1,2,3,5]tetrazin-4(3H)-one]", "activity relative to TMZ in MGMT-expressing cell lines": "significantly more potent"},
      {"smiles": "Cn1nnc2c(-c3ccccc3)ncn2c1=O", "note": "[Compound 23, 3-methyl-8-phenylimidazo[5,1-d][1,2,3,5]tetrazin-4(3H)-one]", "activity relative to TMZ in MGMT-expressing cell lines": "significantly more potent"},
      {"smiles": "Cc1ncn2c(=O)n(C)nnc12", "note": "[Compound 14, 3,8-dimethylimidazo[5,1-d][1,2,3,5]tetrazin-4(3H)-one]", "activity relative to TMZ in MGMT-expressing cell lines": "significantly more potent"}
    ]}
  ]
}
